Measurements as given in US6770638B2, “Tetrahydroindolone and purine derivatives linked to arylpiperazines” (Spectrum Pharmaceuticals, Inc., priority 2001, dated 2004).

Assay: Membrane permeability (Papp) across Caco-2 cell monolayers
Assay type: in vitro ADME
Details: human

Cc1nc2n(c(=O)c1CCN1CCC(c3noc4cc(F)ccc34)CC1)CCCC2 [Risperidone, risperidone, reference compound]
efflux ratio: 0.52
